Experimental findings from ChEMBL document CHEMBL1148306, “Reducing the peptidyl features of caspase-3 inhibitors: a structural analysis” (J Med Chem, 2004) are described below.

For this assay, the target named is T1, Caspase-3 (Homo sapiens, UniProt P42574).
T1 sequence (P42574 whole entry): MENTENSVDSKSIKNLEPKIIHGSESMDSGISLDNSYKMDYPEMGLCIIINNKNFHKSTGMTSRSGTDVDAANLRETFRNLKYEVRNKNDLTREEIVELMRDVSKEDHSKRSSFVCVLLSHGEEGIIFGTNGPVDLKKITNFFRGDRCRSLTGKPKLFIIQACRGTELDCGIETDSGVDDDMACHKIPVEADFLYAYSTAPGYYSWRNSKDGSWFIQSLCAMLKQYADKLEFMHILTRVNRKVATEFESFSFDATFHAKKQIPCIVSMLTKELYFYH
Nature of the assay: Inhibitory concentration of compound against caspase-3.

As to `CC(=O)N[C@@H](CC(=O)O)C(=O)N[C@@H](CCC(=O)O)C(=O)N[C@H](C(=O)N[C@H](C=O)CC(=O)O)C(C)C`, inhibition was half-maximal at 43.9 nM (IC50).
